Compound activity deposited in PubChem BioAssay by National Center for Advancing Translational Sciences (NCATS).
Hits are enriched below; roughly 16% of the tested compounds scored in any of these assays.
DT40 TDP1 no CPT: qHTS for Inhibitors of human tyrosyl-DNA phosphodiesterase 1 (TDP1): qHTS in cells in absence of CPT | DT40 Tdp1-/- hTDP1 cells, no CPT, ATP luminescence, 48 h | Potency, µM (titrated, usually from 46.2 µM), for inactives: at the top dose activity change, negative = growth inhibition, most hits filed as inhibitors | 420,000 tested, 15% active | AID 686978, 2013; further: potency means the concentration at half of the fitted maximal effect; on the % scale 0 is the no-effect control and ±100 the full control effect; nearly all actives have a fitted effect of over 55% in size
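DT40 Tdp1-/-;hTDP1 cells, no CPT (DMSO vehicle only), 400 cells/well; compounds pin-transferred; ≥48 hr, 37 °C; CellTiter-Glo 30 min RT dark, luminescence read.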
uPA generation: blocks generation of uPA at the cell surface. cell surface uPA generation assay, qHTS. Potency, µM (titrated, usually from 38.3 µM), for the others: at the highest dose activity change, negative = inhibition, actives largely listed as inhibitors. 330,000 tested, 0.31% active; active means well fitted inhibition curve with a large enough effect; inconclusive means small, poorly fitted or top-dose-only effect; inactive means no such curve, though single readings can be large or run the other way; tested in mouse RAW 264.7 cells; further: potency means the concentration at half of the fitted maximal effect; on the % scale 0 is the no-effect control and ±100 the full control effect; nearly all actives have a fitted effect of over 55% in size
TDP1 block: TDP1 (human) enzyme inhibition; Q9NUW8; recombinant TDP1, AlphaScreen DNA substrate cleavage; Potency, µM (titrated, usually from 130 µM), inactives show top-dose activity change, negative = inhibition, actives largely listed as inhibitors; 350,000 tested, 0.28% active; further: potency means the concentration at half of the fitted maximal effect; on the % scale 0 is the no-effect control and ±100 the full control effect; nearly all actives have a fitted effect of over 40% in size
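Here, a 5' biotin and 3' phosphotyrosine-FITC DNA oligonucleotide reports Tdp1 activity: intact substrate bridges AlphaScreen beads, while cleavage leaves a 3' phosphate and drops signal. All incubations at room temperature.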
TDP1 cell CPT: growth inhibition of DT40 Tdp1-/-;hTDP1 cells with camptothecin (screen for TDP1 inhibitors). chicken DT40 Tdp1-/-;hTDP1 cells + 20 nM CPT, ATP luminescence, 48 h. Potency, µM (highest dose often 46.2 µM), for inactives: at the highest dose activity change, negative = growth inhibition, most hits filed as inhibitors. 420,000 tested, 12% active. AID 686979; further: potency means the concentration at half of the fitted maximal effect; on the % scale 0 is the no-effect control and ±100 the full control effect; nearly all actives have a fitted effect of over 55% in size
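Chicken DT40 Tdp1-/- cells complemented with human TDP1, 400 cells/well, exposed to compounds plus 20 nM camptothecin for at least 48 h at 37 C; viability read as ATP content by CellTiter-Glo luminescence.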
miR-21 FLuc: miR-21 reporter, rising signal | AID 2288 | HeLa miR-21 FLuc reporter, luciferase, 48 h | 340,000 tested, under 10 active | Potency, µM (titrated, usually from 38.3 µM), for the others: at the top dose reporter change, positive = more light; active = well fitted rising curve with a large enough effect; inconclusive = small, poorly fitted or top-dose-only effect; inactive = no such curve, though single readings can be large or run the other way;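 also: % of control where 0% means no effect; miR-21 action dims this reporter so a rising signal means less miR-21 action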
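Using DMEM plus 10% FBS, HeLa miR-21-FLuc cells are incubated with test compounds (final up to about 40uM) for 48 hours; firefly luciferase signal is then imaged following reagent-mediated lysis.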
* marks the source's active call; other numbers are inactive results; ? = inconclusive; · = no result given; ! = not confirmed by another sample; [ ] = dose if it differs, or a comment. Unless noted, the call rests on the fitted dose curve; in most records, active means well fitted curve in the direction sought with a large enough effect; inconclusive means small, poorly fitted or top-dose-only effect, or another doubt; inactive means no such curve, though single readings can be large; an effect the other way counts as inactive or inconclusive.

The first 2 entries as a preview:
1	C[C@H]1CNC(=O)c2c(C(=O)Nc3cccc(Cl)c3)ncn21
2	Cc1ccc(/C=C2/C(=O)NC(=O)N(CC3CCCO3)C2=O)s1 (stereo unspecified)

assay / entry	1	2
DT40 TDP1 no CPT	?	?
uPA generation	·	6%
TDP1 block	·	-12%
TDP1 cell CPT	-7%	-27%
miR-21 FLuc	·	-22%

Main list, from the first entry:
1	C[C@H]1CNC(=O)c2c(C(=O)Nc3cccc(Cl)c3)ncn21
2	Cc1ccc(/C=C2/C(=O)NC(=O)N(CC3CCCO3)C2=O)s1 (stereo unspecified)
3	C[C@H]1[C@@H](OS(=O)(=O)O)C[C@@H]2C[C@H]([C@@H](O)c3cc(=O)[nH]c(=O)[nH]3)NC3=NC[C@H]1N32
4	CN1C(=O)C(C2CCCCC2)C(=O)N(C)C1=O
5	COc1ccccc1NP1(=O)OCC(C)([N+](=O)[O-])CO1 (stereo unspecified)
6	CN1C(=O)CN=C(c2ccccc2)c2cc([N+](=O)[O-])ccc21
7	CCN1/C(=C/C=C/C2=[N+](CC)c3ccccc3C2(C)C)C(C)(C)c2ccccc21
8	Cc1[nH]ccc2c1[nH]c1cc(=O)ccc12

assay / entry	1	2	3	4	5	6	7	8
DT40 TDP1 no CPT	?	?	3.7µM*	-11%	-22%	17µM*	0.13µM*	13µM*
uPA generation	·	6%	·	3%	5%	·	·	-10%
TDP1 block	·	-12%	·	·	·	0%	·	9%[56.1 µM]
TDP1 cell CPT	-7%	-27%	2.3µM*	-4%	-3%	?	0.15µM*	8.2µM*
miR-21 FLuc	·	-22%	·	·	·	-1%	·	?

9	O=c1ccc(=O)[nH][nH]1
10	CCC(C)(C)O
11	CN(C)C(=O)On1c(-c2ccccc2)nc2ccc(Cl)cc21
12	COc1ccc(-c2nc3ccccc3n2OC(=O)N(C)C)cc1
13	COC(=O)/C=C/C(=O)N[C@@H]1CC[C@@]2(O)[C@H]3Cc4ccc(O)c5c4[C@@]2(CCN3CC2CC2)[C@H]1O5
14	O=C1NC2CCCCN2C12CCN(CCCN1c3ccccc3CCc3ccc(Cl)cc31)CC2 (stereo unspecified)
15	CC(NC(=O)CNC(=S)N(Cc1ccccc1)Cc1cccnc1)c1ccccc1 (stereo unspecified)
16	Cn1c(=O)n(C)c2cc(CNCCc3ccc(F)cc3)ccc21

assay / entry	9	10	11	12	13	14	15	16
DT40 TDP1 no CPT	·	·	29µM*	-6%	·	24µM*	?	26µM*
uPA generation	·	·	-9%	-8%	·	·	-4%	·
TDP1 block	2%	6%	9%	6%	9%	·	5%	5%
TDP1 cell CPT	·	·	?	-1%	·	?	?	16µM*
miR-21 FLuc	·	·	-29%	-27%	·	·	5%	-1%

17	COc1ccc(CCNCc2ccc3c(c2)n(C)c(=O)n3C)cc1
18	COc1cc([C@@H]2c3cc4c(cc3C[C@H]3COC(=O)[C@@H]32)OCO4)cc(OC)c1O
19	COc1cc(C2c3cc4c(cc3CC3COC(=O)C32)OCO4)cc(OC)c1OC (stereo unspecified)
20	COC(=O)[C@]1(C)CC[C@@]2(C)CC[C@@]3(C)C4=CC=C5C(=CC(=O)C(O)=C5C)[C@@]4(C)CC[C@@]3(C)C2C1 (stereo partly specified)
21	COc1ccc(C2NCc3ccc4c(c3-n3cccc32)OCO4)cc1O (stereo unspecified)
22	Oc1ccc(C2NCc3ccccc3-n3cccc32)cc1Cl (stereo unspecified)
23	CCOc1cc2c(cc1OCC)-n1cccc1C(c1ccc(F)c(OC)c1)NC2 (stereo unspecified)
24	c1cc2n(c1)-c1c(ccc3c1OCO3)CNC2c1ccc2c(c1)OCO2 (stereo unspecified)

assay / entry	17	18	19	20	21	22	23	24
DT40 TDP1 no CPT	-32%	0.032µM*	0.0052µM*	0.73µM*	4.6µM*	?	?	13µM*
uPA generation	·	·	?	·	-15%	-7%	-15%	1%
TDP1 block	4%	1%	0%	9%[12.3 µM]	9%	9%	·	6%
TDP1 cell CPT	?	0.071µM*	0.021µM*	1µM*	4.1µM*	?	?	?
miR-21 FLuc	-2%	·	·	·	18%	-11%	-10%	5%

A stretch from the list above, for reference:
20	COC(=O)[C@]1(C)CC[C@@]2(C)CC[C@@]3(C)C4=CC=C5C(=CC(=O)C(O)=C5C)[C@@]4(C)CC[C@@]3(C)C2C1 (stereo partly specified)
21	COc1ccc(C2NCc3ccc4c(c3-n3cccc32)OCO4)cc1O (stereo unspecified)

assay / entry	20	21
DT40 TDP1 no CPT	0.73µM*	4.6µM*
uPA generation	·	-15%
TDP1 block	9%[12.3 µM]	9%
TDP1 cell CPT	1µM*	4.1µM*
miR-21 FLuc	·	18%

The listing continues:
25	Nc1nc2ccc(Cl)cc2c2nc(-c3ccco3)nn12
26	O=c1c2ccccc2sn1-c1ccc(Cl)cc1
27	Cc1ccc(N2C(=O)CC(=O)NC2=O)cc1
28	Cc1ccc(-n2sc3ccccc3c2=O)cc1
29	CC1CCC2C(C)C(=O)OC3OC4(C)CCC1C32OO4 (stereo unspecified)
30	CC1CCC2[C@@H](C)C(=O)OC3O[C@]4(C)CCC1C32OO4 (stereo partly specified)
31	Cc1cccc(-n2c(=S)[nH]c3ccccc3c2=O)n1
32	NNC(=O)CP(=O)(c1ccccc1)c1ccccc1

assay / entry	25	26	27	28	29	30	31	32
DT40 TDP1 no CPT	8.9µM*	1.8µM*	-5%	3.3µM*	0.84µM*!	7.3µM*	-5%	12µM*!
uPA generation	·	·	·	-14%	-12%	-15%	1%	-7%
TDP1 block	6%[56.1 µM]	·	-12%	7%	3%[56.1 µM]	·	3%	5%
TDP1 cell CPT	6.3µM*	2.1µM*	-13%	2.9µM*	?	?	6%	?
miR-21 FLuc	9%	·	-3%	26%	23%	·	1%	·

33	CCCCOCCOP(=O)(OCCOCCCC)OCCOCCCC
34	CCc1ccc(-c2nc(CN3CCCC(C(=O)NCc4ccc(C)cc4)C3)c(C)o2)cc1 (stereo unspecified)
35	COc1ccc(CNC(=O)Cn2c(=O)nc(-c3ccccc3F)c3cc(Cl)ccc32)cc1
36	COc1ccc(NC(=O)CN2C(=O)C(C)N=C(c3ccccc3F)c3cc(Cl)ccc32)c(OC)c1 (stereo unspecified)
37	C[C@H]1CC[C@]2(NC1)O[C@H]1C[C@H]3[C@@H]4CC[C@H]5C[C@@H](O)CC[C@]5(C)[C@H]4CC[C@]3(C)[C@H]1[C@@H]2C
38	CCc1ccccc1N1C(=O)N(Cc2ccccc2C)c2ccccc2S1(=O)=O
39	Cc1ccccc1CN1CCCN(Cc2ccc(Cl)cc2)S1(=O)=O
40	CCCCOc1ccc(CN2CCN(CCO)CC2)cc1

assay / entry	33	34	35	36	37	38	39	40
DT40 TDP1 no CPT	·	5.8µM*	2.1µM*	?	?	16µM*	-17%	-27%
uPA generation	·	·	·	·	·	·	3%	·
TDP1 block	10%	2%	1%	0%	·	-1%	·	5%
TDP1 cell CPT	·	8.2µM*	1.5µM*	?	-3%	?	2%	-28%
miR-21 FLuc	·	-8%	-1%	4%	·	25%	0%	-25%

41	CCCCCCOc1ccc(CN2CCN(CCO)CC2)cc1
42	CCON=O
43	O=C(CCCCCCCCCCC(=O)NCc1cccnc1)NCc1cccnc1
44	O=C(CCCc1ccc(N(CCCl)CCCl)cc1)NCc1ccccc1
45	Cc1ccccc1C(=O)Oc1cccc(Nc2ncnc3ccccc23)c1
46	CNCC(O)c1cccc(OC(=O)c2ccccc2C)c1 (stereo unspecified)
47	O=P(Oc1ccccc1)(Oc1ccccc1)N1CCN(c2ccc(F)cc2)CC1
48	COc1ccc(-c2cc(C(F)(F)F)n3nc(C(=O)N4CCC5(CC4)OCCO5)cc3n2)cc1OC
49	Cc1nc2cc(C(F)(F)F)ccc2n1C1CCN(Cc2nnnn2Cc2ccc3c(c2)OCO3)CC1

assay / entry	41	42	43	44	45	46	47	48	49
DT40 TDP1 no CPT	21µM*	?	?	0.73µM*	13µM*	-25%	?	21µM*	16µM*
uPA generation	·	·	1%	·	-7%	6%	-5%	-3%	-2%
TDP1 block	3%	·	1%	·	·	3%	·	0%	-11%
TDP1 cell CPT	16µM*	0.094µM*	?	0.73µM*	16µM*	-15%	?	-23%	29µM*
miR-21 FLuc	-26%	·	9%	·	·	-9%	23%	-9%	13%
